Source: patent publication US10040802B2, “Thienopyrazine inhibitors of IRAK4 activity” (MERCK SHARP & DOHME CORP., priority 2015, dated 2018)

Sequences of proteins named here, by UniProt entry; tags and fusion partners are left off.
UniProt Q9NWZ3, whole entry: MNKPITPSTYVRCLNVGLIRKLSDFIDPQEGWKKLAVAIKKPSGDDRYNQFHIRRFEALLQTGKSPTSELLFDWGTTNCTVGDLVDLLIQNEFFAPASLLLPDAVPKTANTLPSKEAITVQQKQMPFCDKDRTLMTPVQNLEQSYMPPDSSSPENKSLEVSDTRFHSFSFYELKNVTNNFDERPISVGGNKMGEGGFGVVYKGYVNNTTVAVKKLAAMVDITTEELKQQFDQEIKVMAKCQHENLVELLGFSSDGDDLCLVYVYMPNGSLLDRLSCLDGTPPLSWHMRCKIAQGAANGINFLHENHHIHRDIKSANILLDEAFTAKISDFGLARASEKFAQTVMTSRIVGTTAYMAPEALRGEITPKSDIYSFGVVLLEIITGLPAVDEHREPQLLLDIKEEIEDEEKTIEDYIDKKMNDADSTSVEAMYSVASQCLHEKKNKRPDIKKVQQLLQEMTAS

Molecular target: GST tagged IRAK4 (Homo sapiens (Human), UniProt Q9NWZ3)
Experiment: IRAK4 Kinase Assay (IMAP fluorescence polarization)
Details: read-out: IRAK4 IC50; 0.5 nM GST tagged IRAK4, 100 μM ATP, 30 minutes at 25° C.; tested form: TFA
Procedure: The kinase activity of IRAK4 is determined by its ability to catalyze the phosphorylation of a fluorescent polypeptide substrate. The extent of phosphorylation is measured using the IMAP technology (Molecular Devices) where the phosphorylated fluorescent substrate binds to the large M(III)-based nanoparticles which reduces the rotational speed of the substrate and thus increases its fluorescent polarization (FP).
20 μL reaction mixture contains 10 mM TriHCl, pH 7.2, 0.5 nM GST tagged IRAK4 (SignalChem), 100 nM fluorescent peptide substrate (RP7030, Molecular Devices), 100 μM ATP, 1 mM DDT, 1 mM MgCl2, and 0.01% Tween 20. The reaction is initiated by the addition of ATP. After incubation for 30 minutes at 25° C., 60 μL of Progressive IMAP Reagent (Molecular Devices) is added to stop the reaction. Change in RP7030's FP is determined by a FP reader (Analyst HT, LJL BioSystems).

Structure (SMILES): Cn1ncc(NC(=O)c2csc3ncc(N[C@@H]4CCCC[C@@H]4N)nc23)c1C(F)(F)F
- IC50: 16 nM
